Source: US20250295610A1, “NEUROPROTECTIVE AGENTS FOR USE IN THE TREATMENT OF OPTIC NEUROPATHIES” (The Board of Trustees of the Leland Stanford Junior …, priority 2021, published 2025)

System: XBP-1-Luc HEK293T reporter cell line (IRE1α activity and XBP-1 splicing)
Details: XBP-1-Luc cells with HRH1 OE, Tm/Tg 1 μM, 24 hours

Clc1ccc2c(c1)C(N1CCNCC1)=Nc1ccccc1O2 [amoxapine]
effect of HRH1 overexpression on the inhibitory effects on XBP-1 splicing: reversed

CNCCCC12CCC(c3ccccc31)c1ccccc12 [maprotiline]
effect of HRH1 overexpression on the inhibitory effects on XBP-1 splicing: reversed
